By UniProt entry, the sequences of proteins in these tests, tags left out.
UniProt P08485, whole entry: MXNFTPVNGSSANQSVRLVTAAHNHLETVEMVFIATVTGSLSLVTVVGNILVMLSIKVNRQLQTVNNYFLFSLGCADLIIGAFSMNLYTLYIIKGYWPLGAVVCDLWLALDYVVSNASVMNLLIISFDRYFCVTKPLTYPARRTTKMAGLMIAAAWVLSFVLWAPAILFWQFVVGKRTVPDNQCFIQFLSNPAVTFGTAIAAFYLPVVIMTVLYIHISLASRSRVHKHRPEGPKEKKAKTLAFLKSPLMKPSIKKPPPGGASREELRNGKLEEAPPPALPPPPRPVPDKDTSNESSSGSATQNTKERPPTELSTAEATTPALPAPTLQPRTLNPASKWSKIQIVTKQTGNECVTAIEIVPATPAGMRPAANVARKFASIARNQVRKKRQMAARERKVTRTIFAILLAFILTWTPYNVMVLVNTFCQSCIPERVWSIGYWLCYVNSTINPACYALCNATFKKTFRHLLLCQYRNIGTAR
UniProt P08173, whole entry: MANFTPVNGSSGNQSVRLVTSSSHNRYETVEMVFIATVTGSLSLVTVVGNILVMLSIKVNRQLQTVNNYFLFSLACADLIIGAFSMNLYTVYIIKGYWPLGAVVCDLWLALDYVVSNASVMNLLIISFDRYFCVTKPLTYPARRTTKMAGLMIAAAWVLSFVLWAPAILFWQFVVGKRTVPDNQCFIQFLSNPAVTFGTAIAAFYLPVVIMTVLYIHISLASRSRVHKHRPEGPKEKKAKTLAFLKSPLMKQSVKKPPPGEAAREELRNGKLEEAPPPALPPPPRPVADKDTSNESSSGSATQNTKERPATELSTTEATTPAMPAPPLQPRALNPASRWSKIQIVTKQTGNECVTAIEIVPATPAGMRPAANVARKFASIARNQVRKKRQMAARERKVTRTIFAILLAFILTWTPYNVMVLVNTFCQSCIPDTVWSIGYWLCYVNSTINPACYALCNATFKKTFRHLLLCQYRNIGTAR

In patent US20260384432A1, “SUBSTITUTED DIHYDROPYRROLO[3,4-D]PYRIMIDINE COMPOUNDS AND THEIR USE IN TREATING MEDICAL CONDITIONS” (published 2026):

Legend:
Rat M4 (rM4 receptor) = Rat M4 (rM4 receptor) (Rattus norvegicus, UniProt P08485); assay: Rat M4 PAM pERK assay (CHO cells expressing rM4, TR-FRET); conditions: read-out: Rat M4 PAM pERK EC50, PAM mode, EC20 of acetylcholine (10 nM final), 5 mins at 37 °C
Description: (§1) Part I—Experimental Procedures for Human and Rat M4 PAM pERK Assay
(§2) Chinese hamster ovary (CHO) cells expressing either hM4 or rM4 receptors were frozen in assay ready vials (5×10^6 cells/vial) after bulking-up in culture. The day before an assay, vial(s) were thawed and cells seeded in 384 well white proxiplates at 1000/well for hM4 cells and at 2000/well for rM4 cells, in 10 µL of growth media (Hams/F 12 with glutainax and 1000 FCS) and incubated overnight at 37 °C/500 CO2.
(§3) On the following morning, the growth media was removed by ‘flicking out’ over a bin, patting the inverted plate onto tissue, and then replacing with 10 μL of wash media (Hams/F 12 with glutamax and 8 mM HEPES, NB: serum free). Then, the wash media was removed in the same way and replaced with 8 μL/well of the serum free media. Plates were then re-incubated for a further 4 hours at 37 °C/5% CO2.
(§4) Compounds for testing were solubilized to 10 mM in DMSO and compound addition plates, consisting of ten-point concentration response curves (CRC) in duplicate points (10 μM top concentration, ½ log dilution series), were prepared by acoustic dispensing and the compound management group.
(§5) After the 4-hour incubation in serum free media, a 4 μL aliquot of the 3× compound solution containing an EC2O of acetylcholine (10 nM final concentration) was added to the cell plate using a 384 well plate to plate transfer. Then, the plate lid was replaced, and the cells incubated for 5 mins at 37 °C/5% CO2. Following this final incubation, all cellular processes were stopped by the addition of 4 μL/well of lysis and blocking buffer and plates were incubated for 30 minutes at RT on an orbital shaker (gentle setting). Then, a final addition of 4 μL/well of antibody detection mix, containing both the Europium-Cryptate (donor) and d2 (acceptor) tagged detection components, was added followed by a further 2-hour incubation at RT, and then the plate was read using a TR-FRET (time resolved fluorescence resonance energy transfer) based protocol.

Human M4 receptor = Human M4 receptor (Homo sapiens, UniProt P08173); assay: M4 GTPγS PAM assay (35S-GTP binding to membranes of CHO-K1 cells stably expressing human M4 receptor); conditions: read-out: Human M4 PAM GTPγS EC50, PAM mode, EC20 acetylcholine (40 nM for human M4), GDP 0.1 uM, 1 hour at room temperature
Description: Part II—Experimental Procedures for M4 GTPyS PAM Assay
The M4 GTPyS PAM method was used. Membranes were prepared for GTPgS binding assays from CHO-K1 cells stably expressing human M4 receptor. Briefly, cells were grown in 5-layer cell culture flasks. Cells were washed with 50 mL of PBS and then dissociated with 0.05% trypsin. Dissociated cells were then collected by centrifugation at 650×g for 8 minutes at 4 °C. Pellets were washed again in PBS by centrifugation and resuspended in 30 mL of 20 mM HEPES, 10 mM EDTA, pH 7.4. After sitting on ice for 30 min, membranes were collected by centrifugation at 50000×g for 15′ at 4 °C, resuspended in 30 mL of 20 mM HEPES, 0.1 mM EDTA, pH 7.4 and collected again by centrifugation. Pellets were then washed twice by centrifugation in 30 mL of 20 mM HEPES, pH 7.4, and stored at −80 °C until the day of the assay. On the day of the assay, pellets were thawed on ice and resuspended in 1 mL of 20 mM HEPES, pH 7.4, 10 mM MgCl2, 100 mM NaCl using dounce homogenization. Membrane protein concentration is determined by BCA protein assay (Promega, Madison, WI) according to Promega guidelines.
On the day of the assay, serial dilutions of test PAM compounds were brought up in assay buffer (20 mM HEPES, 10 mM MgCl2, 100 mM NaCl) at 4× final assay concentration. […] of membrane homogenates (containing 5 mg of membrane protein) were prepared in assay buffer supplemented with GDP at 4× final assay concentration (final assay concentration of GDP is 5 uM for M2 and 0.1 uM for M4) and dispensed into 96 well polypropylene, U-bottom Greiner plates. 25 ml of vehicle or test PAM compound at 4× of final assay concentration diluted in the assay buffer were added to membrane and plates are incubated for 10-15 minutes at room temperature with gentle shaking. Then, […] of EC20 acetylcholine in assay buffer at 4× final assay concentration was added to assay plates (EC20 final assay concentrations was 40 nM for human M4).
Plates were then incubated, with shaking, for an additional 10-15 minutes. 25 mL of 0.4 nM ^35S-GTP (Perkin Elmer, Waltham, MA) in assay buffer was added to assay mixtures. The binding reaction is left on the shaker for 1 hour at room temperature. Membranes in assay reactions were then transferred to GF/C filter plates (Unifilter, Perkin Elmer) and washed three times using a FilterMate Harvester (Perkin Elmer) with cold assay buffer containing no GDP. Filter plates were then dried at 40 °C overnight followed by the addition of […] of Beta Plate Scintillation liquid. Plates are top and bottom sealed before being read on TopCount scintillation counter (Perkin Elmer, Waltham, MA).

Human M4 (hM4 receptor) = Human M4 (hM4 receptor) (Homo sapiens, UniProt P08173); assay: Human M4 PAM pERK assay (CHO cells expressing hM4, TR-FRET); conditions: read-out: Human M4 PAM pERK EC50, PAM mode, EC20 of acetylcholine (10 nM final), 5 mins at 37 °C
Description: as §1, §2, §3, §4, §5

Row | EC50 (Rat M4 (rM4 receptor)) | EC50 (Human M4 receptor) | EC50 (Human M4 (hM4 receptor)) | Structure (SMILES)
1 | > 2000 nM | > 2000 nM | 100 to 500 nM | COc1nc(C)nc2c1CN(C(=O)CC1CC1c1cccnc1)C2 (single isomer, unassigned) [I-6]
2 | > 2000 nM | > 2000 nM | > 2000 nM | Cc1nc2c(c(OC3CC3)n1)CN(C(=O)CC1CC1c1cccnc1)C2 (single isomer, unassigned)
3 | – | > 2000 nM | > 2000 nM | COc1nc(C)nc2c1CN(C(=O)CC1CC1c1cccnc1)C2 (single isomer, unassigned) [I-5]
4 | > 2000 nM | > 2000 nM | > 2000 nM | COc1nc(C#N)nc2c1C(C)N(C(=O)CC1CC1c1cc(F)cc(F)c1)C2 (single isomer, unassigned) [I-8]
5 | 500 to 2000 nM | 100 to 500 nM | < 100 nM | COc1nc(C#N)nc2c1C(C)N(C(=O)CC1CC1c1ccnc(C(F)(F)F)c1)C2 (centres unmarked)
6 | > 2000 nM | 500 to 2000 nM | > 2000 nM | COc1nc(C#N)nc2c1C(C)N(C(=O)CC1CC1c1ccnc(C(F)(F)F)c1)C2 (single isomer, unassigned) [I-11]
7 | > 2000 nM | – | 500 to 2000 nM | Cc1nc2c(c(NC3CC3)n1)CN(C(=O)CC1CC1c1cccnc1)C2 (single isomer, unassigned) [I-4]
8 | 100 to 500 nM | < 100 nM | < 100 nM | COc1nc(C#N)nc2c1C(C)N(C(=O)CC1CC1c1cc(F)cc(F)c1)C2 (single isomer, unassigned) [I-9]
9 | 100 to 500 nM | < 100 nM | < 100 nM | COc1nc(C#N)nc2c1C(C)N(C(=O)CC1CC1c1cc(F)cc(F)c1)C2 (centres unmarked)
10 | – | – | > 2000 nM | Cc1nc2c(c(NC3CC3)n1)CN(C(=O)CC1CC1c1cccnc1)C2 (single isomer, unassigned) [I-3]
11 | 100 to 500 nM | < 100 nM | < 100 nM | COc1nc(C#N)nc2c1C(C)N(C(=O)CC1CC1c1ccnc(C(F)(F)F)c1)C2 (single isomer, unassigned) [I-12]
